{
  "source": "ChEMBL document CHEMBL1124441",
  "about": "“Synthesis of congeners and prodrugs. 3. Water-soluble prodrugs of taxol with potent antitumor activity” (1989)",
  "settings_in_all_cases": "Mus musculus",
  "key": {"B16 [1]": {"test_system": "B16", "test": "Difference in body weight in grams between test and control animals at a dose of 6.75 mg/kg intraperitoneally"}, "B16 [2]": {"test_system": "B16", "test": "Difference in body weight in grams between test and control animals at a dose of 27 mg/kg intraperitoneally"}, "B16 [3]": {"test_system": "B16", "test": "Antitumor activity in B16 Melanoma system animals is indicated by survivors on day 4 at a dose of 54 mg/kg intraperitoneally"}, "B16 [4]": {"test_system": "B16", "test": "Antitumor activity in B16 Melanoma system animals is indicated by survivors on day 4 at a dose of 13.5 mg/kg intraperitoneally"}, "B16 [5]": {"test_system": "B16", "test": "Difference in body weight in grams between test and control animals at a dose of 13.5 mg/kg intraperitoneally"}, "B16 [6]": {"test_system": "B16", "test": "Antitumor activity in B16 Melanoma system animals is indicated by survivors on day 4 at a dose of 27 mg/kg intraperitoneally"}, "B16 [7]": {"test_system": "B16", "test": "Antitumor activity in B16 Melanoma system animals is indicated by survivors on day 4 at a dose of 6.75 mg/kg intraperitoneally"}, "B16 [8]": {"test_system": "B16", "test": "Percent of median lifetime of test animals divided by the median lifetime of control animals at a dose of 6.75 mg/kg intraperitoneally"}, "B16 [9]": {"test_system": "B16", "test": "Difference in body weight in grams between test and control animals at a dose of 54 mg/kg intraperitoneally"}, "B16 [10]": {"test_system": "B16", "test": "Percent of median lifetime of test animals divided by the median lifetime of control animals at a dose of 13.5 mg/kg intraperitoneally"}, "B16 [11]": {"test_system": "B16", "test": "Percent of median lifetime of test animals divided by the median lifetime of control animals at a dose of 54 mg/kg intraperitoneally; toxic"}, "B16 [12]": {"test_system": "B16", "test": "Percent of median lifetime of test animals divided by the median lifetime of control animals at a dose of 27 mg/kg intraperitoneally"}},
  "data": [
    {"smiles": "CC(=O)OC1C(=O)[C@@]2(C)[C@H]([C@H](OC(=O)c3ccccc3)[C@]3(O)CC(OC(=O)C(OC(=O)CCC(=O)O)C(NC(=O)c4ccccc4)c4ccccc4)C(C)=C1C3(C)C)[C@]1(OC(C)=O)CO[C@@H]1C[C@@H]2O", "note": "(some centres not stated)", "values": [
      {"measurement": "Weight difference", "setting": "B16 [1]", "result": 0, "unit": "g"},
      {"measurement": "Weight difference", "setting": "B16 [2]", "result": -0.8, "unit": "g"},
      {"measurement": "Activity", "setting": "B16 [3]", "result": 10},
      {"measurement": "Activity", "setting": "B16 [4]", "result": 10},
      {"measurement": "Weight difference", "setting": "B16 [5]", "result": 0.6, "unit": "g"},
      {"measurement": "Activity", "setting": "B16 [6]", "result": 10},
      {"measurement": "Activity", "setting": "B16 [7]", "result": 10},
      {"measurement": "T/C", "setting": "B16 [8]", "result": 230, "unit": "%"},
      {"measurement": "Weight difference", "setting": "B16 [9]", "result": -0.4, "unit": "g"},
      {"measurement": "T/C", "setting": "B16 [10]", "result": 264, "unit": "%"},
      {"measurement": "T/C", "setting": "B16 [11]", "result": "Toxic"},
      {"measurement": "T/C", "setting": "B16 [12]", "result": 314, "unit": "%"}
    ]}
  ]
}
